From patent publication US20170275270A1, “BENZYL SUBSTITUTED INDAZOLES” (Bayer Pharma Aktiengesellschaft, priority 2014, published 2017)

Chains of the proteins cited; added tags and fusions are not shown. Residues count along the entry.
UniProt O43683, whole entry: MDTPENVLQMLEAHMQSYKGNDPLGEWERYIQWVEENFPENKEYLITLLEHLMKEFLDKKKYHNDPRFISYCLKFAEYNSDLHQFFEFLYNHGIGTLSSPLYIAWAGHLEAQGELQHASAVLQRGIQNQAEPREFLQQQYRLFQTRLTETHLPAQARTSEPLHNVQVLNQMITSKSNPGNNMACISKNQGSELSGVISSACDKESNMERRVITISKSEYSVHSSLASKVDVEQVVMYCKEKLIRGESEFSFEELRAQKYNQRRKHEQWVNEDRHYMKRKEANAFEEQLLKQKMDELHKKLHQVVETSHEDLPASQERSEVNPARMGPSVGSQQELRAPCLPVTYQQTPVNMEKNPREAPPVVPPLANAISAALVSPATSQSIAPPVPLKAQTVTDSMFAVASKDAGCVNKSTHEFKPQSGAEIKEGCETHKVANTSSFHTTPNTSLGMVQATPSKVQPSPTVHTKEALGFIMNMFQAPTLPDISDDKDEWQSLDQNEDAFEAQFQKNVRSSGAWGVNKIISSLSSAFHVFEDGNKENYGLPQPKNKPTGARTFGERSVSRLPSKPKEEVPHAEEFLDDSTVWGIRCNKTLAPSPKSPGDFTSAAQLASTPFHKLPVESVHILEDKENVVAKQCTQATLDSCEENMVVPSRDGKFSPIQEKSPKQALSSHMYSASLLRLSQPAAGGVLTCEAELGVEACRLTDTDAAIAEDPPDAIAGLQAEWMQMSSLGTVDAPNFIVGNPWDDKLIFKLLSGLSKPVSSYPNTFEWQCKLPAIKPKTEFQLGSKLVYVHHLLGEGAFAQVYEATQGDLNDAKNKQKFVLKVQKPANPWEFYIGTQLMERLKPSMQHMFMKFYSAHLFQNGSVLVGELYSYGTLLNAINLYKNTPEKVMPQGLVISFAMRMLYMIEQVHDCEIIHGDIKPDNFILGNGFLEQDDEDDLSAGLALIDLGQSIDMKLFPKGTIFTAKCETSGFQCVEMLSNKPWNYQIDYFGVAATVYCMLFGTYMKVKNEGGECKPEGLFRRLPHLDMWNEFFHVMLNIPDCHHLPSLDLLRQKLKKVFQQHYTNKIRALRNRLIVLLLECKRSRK
UniProt O43683, 704-1085 limits assumed: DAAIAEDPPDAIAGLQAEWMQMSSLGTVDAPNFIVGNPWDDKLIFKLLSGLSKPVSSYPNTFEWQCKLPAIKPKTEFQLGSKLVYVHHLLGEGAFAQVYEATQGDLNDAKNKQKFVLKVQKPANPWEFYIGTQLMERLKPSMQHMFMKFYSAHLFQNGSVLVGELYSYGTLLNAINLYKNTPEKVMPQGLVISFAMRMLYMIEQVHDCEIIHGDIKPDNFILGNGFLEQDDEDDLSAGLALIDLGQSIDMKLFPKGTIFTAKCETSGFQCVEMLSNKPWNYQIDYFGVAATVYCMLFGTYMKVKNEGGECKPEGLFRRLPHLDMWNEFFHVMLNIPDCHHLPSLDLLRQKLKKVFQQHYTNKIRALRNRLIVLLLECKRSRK

What was measured:
[1] = biological target: catalytic domain of human Bub1 (amino acids 704-1085) (Homo sapiens, UniProt O43683); test: Bub1 kinase assay (TR-FRET); type: biochemical; details: read-out: Biological Assay 1: Bub1 kinase assay median IC50, 10 μM ATP
[2] = biological target: Bub1 (Homo sapiens, UniProt O43683); test: Formation-Assay: phosphorylation status of histone 2A by inhibition of kinase activity of Bub1; type: cell-based; details: read-out: Biological Assay 4.1: H2A Formation IC50; co-treatment with Nocodazole 1 μg/ml, 16 h
[3] = system: HeLa; test: Proliferation assay (HeLa cell line); details: read-out: Biological Assay 2: Proliferation assay (HeLa cell line) median IC50, 4 days, crystal violet;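 further: crystal violet staining of cell number, scaled between a plate stained before dosing (0%) and cells left untreated (100%), compounds tested at 0.001-10 µM, IC50 via 4-parameter fit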
[4] = system: HeLa human cervical tumor cells; test: Proliferation assay (HeLa+Paclitaxel); details: read-out: Biological Assay 3: HeLa + Paclitaxel IC50, 3 nM paclitaxel, crystal violet;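 further: compounds at 0.001-10 µM added 4 h after paclitaxel, 92 h exposure, absorbance normalized to zero-point plate (0%) and untreated cells (100%), IC50 from 4-parameter fit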

CCOc1cc(F)c(Cn2nc(-c3ncc(CCC[S@@+](C)[O-])c(Nc4ccncc4)n3)c3ccccc32)c(F)c1
IC50 [1]: 5.6 nM
IC50 [2]: 290 nM
IC50 [3]: 7300 nM
IC50 [4]: 150 nM
